Among the targets are PIK3C2G (human) (UniProt O75747); FGFR2 (human) (UniProt P21802); FGFR4 (human) (UniProt P22455).
Common to all, as to assay: KINOMEscan competition binding
Settings in all cases: compound 10.0 µM

By UniProt entry, the sequences of proteins in these tests, tags left out. Where a name states a change or a piece, a line headed by the entry shows the natural chain unless it says otherwise.
UniProt O75747: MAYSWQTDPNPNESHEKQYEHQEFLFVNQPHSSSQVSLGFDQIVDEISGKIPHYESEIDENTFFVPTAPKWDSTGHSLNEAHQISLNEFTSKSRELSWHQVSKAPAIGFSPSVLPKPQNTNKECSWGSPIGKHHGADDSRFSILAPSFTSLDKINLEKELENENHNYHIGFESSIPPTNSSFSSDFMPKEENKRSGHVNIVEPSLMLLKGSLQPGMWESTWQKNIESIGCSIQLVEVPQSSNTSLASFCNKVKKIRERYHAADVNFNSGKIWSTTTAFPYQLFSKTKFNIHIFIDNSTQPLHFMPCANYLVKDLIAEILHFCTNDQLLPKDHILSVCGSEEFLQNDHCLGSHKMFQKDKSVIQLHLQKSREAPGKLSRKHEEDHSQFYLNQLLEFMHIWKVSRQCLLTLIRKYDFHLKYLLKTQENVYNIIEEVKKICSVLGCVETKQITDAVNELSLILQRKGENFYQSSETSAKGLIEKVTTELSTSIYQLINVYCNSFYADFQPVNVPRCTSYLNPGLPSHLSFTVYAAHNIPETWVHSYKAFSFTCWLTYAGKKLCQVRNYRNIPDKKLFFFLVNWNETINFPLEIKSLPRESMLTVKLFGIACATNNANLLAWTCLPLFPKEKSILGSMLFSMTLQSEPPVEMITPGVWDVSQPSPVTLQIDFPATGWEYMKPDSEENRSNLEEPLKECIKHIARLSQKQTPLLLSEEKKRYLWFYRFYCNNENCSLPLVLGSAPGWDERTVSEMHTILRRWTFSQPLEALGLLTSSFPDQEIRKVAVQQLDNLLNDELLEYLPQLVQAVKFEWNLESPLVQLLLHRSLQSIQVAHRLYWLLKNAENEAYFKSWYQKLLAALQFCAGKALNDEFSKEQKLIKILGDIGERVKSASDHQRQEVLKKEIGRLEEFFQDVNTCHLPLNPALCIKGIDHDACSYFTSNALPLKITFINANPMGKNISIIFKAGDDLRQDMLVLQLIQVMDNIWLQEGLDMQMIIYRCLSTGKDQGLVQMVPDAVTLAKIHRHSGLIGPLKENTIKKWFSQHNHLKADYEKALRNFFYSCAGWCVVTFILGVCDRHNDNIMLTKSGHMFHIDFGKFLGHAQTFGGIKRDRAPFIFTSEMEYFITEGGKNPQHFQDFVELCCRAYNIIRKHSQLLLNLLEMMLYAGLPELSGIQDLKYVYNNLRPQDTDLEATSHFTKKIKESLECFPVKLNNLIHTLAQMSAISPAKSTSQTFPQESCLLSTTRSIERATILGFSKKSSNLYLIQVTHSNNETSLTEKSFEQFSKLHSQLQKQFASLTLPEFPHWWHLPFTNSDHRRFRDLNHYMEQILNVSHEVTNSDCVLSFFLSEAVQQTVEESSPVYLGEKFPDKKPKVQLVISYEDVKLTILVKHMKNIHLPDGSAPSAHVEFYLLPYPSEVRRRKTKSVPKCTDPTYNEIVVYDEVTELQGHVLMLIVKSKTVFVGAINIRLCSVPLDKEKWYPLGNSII
UniProt P21802, whole entry, looked up: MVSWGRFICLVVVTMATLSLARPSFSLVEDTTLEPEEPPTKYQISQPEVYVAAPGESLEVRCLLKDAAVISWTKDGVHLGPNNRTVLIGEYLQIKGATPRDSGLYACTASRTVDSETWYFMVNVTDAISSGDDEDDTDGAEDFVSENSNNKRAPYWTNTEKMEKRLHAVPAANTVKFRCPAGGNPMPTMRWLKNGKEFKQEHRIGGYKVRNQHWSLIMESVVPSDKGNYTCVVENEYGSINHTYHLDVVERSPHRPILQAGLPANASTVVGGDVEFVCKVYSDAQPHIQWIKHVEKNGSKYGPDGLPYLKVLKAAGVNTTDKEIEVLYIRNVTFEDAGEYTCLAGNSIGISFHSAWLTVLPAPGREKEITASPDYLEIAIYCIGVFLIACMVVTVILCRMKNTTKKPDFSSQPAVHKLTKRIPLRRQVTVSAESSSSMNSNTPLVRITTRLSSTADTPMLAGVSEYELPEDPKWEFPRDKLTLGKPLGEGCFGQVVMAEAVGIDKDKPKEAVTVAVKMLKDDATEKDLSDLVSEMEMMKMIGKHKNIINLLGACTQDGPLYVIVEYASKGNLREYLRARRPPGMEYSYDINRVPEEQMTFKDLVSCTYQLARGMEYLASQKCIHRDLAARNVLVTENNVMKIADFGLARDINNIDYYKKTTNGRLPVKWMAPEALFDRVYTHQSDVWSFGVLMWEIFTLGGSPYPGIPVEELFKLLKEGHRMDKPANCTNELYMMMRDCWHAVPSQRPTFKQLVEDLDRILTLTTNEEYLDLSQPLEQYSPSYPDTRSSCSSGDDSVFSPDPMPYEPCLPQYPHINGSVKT
UniProt P22455, whole entry, looked up: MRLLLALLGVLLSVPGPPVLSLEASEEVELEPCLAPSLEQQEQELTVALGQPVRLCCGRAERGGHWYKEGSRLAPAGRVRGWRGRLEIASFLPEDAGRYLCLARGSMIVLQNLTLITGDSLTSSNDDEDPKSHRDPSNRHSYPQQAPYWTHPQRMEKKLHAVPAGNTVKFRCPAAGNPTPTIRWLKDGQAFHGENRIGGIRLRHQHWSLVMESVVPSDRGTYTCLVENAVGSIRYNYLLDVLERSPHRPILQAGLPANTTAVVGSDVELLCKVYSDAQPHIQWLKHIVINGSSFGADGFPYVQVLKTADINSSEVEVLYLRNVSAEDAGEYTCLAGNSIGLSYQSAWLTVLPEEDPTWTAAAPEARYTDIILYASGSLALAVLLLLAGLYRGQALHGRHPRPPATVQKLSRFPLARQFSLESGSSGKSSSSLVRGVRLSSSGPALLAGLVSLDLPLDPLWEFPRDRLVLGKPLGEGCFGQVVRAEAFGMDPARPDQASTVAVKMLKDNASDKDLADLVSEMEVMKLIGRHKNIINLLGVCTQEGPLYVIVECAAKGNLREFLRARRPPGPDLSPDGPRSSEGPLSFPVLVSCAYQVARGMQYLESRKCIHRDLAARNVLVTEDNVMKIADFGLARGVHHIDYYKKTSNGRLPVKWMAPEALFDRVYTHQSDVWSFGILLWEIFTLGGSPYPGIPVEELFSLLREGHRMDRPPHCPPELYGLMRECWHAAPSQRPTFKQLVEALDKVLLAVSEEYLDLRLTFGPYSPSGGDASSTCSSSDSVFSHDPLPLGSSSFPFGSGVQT

`CS(=O)(=O)N1CCN(Cc2cc3nc(-c4cccc5[nH]ncc45)nc(N4CCOCC4)c3s2)CC1` displayed a kinase still bound, per cent of control on PIK3C2G (human) of 27%.

As to `CCN(CC)CCCCNc1ncc2cc(-c3cc(OC)cc(OC)c3)c(NC(=O)NC(C)(C)C)nc2n1`, the kinase still bound, per cent of control on FGFR2 (human) was found to be 2.9%; at FGFR4 (human), 17%.

Values taken from the kinase profiling compilation of Christmann-Franck et al. (2016).
